Measurements as given in patent US10752581B2, “4-((2-hydroxy-3-methoxybenzyl)amino)benzenesulfonamide derivatives as potent and selective inhibitors of 12-lipoxygenase” (Eastern Virginia Medical School, priority 2013, dated 2020).
Like-named read-outs stand apart in the source and are kept apart here. Values belong to the compound of their own block, whether it stands above or below them.

Chains of the proteins cited; added tags and fusions are not shown. Lines headed by an entry give the natural chain unless they say otherwise; changes in a name come on top.
UniProt P16050: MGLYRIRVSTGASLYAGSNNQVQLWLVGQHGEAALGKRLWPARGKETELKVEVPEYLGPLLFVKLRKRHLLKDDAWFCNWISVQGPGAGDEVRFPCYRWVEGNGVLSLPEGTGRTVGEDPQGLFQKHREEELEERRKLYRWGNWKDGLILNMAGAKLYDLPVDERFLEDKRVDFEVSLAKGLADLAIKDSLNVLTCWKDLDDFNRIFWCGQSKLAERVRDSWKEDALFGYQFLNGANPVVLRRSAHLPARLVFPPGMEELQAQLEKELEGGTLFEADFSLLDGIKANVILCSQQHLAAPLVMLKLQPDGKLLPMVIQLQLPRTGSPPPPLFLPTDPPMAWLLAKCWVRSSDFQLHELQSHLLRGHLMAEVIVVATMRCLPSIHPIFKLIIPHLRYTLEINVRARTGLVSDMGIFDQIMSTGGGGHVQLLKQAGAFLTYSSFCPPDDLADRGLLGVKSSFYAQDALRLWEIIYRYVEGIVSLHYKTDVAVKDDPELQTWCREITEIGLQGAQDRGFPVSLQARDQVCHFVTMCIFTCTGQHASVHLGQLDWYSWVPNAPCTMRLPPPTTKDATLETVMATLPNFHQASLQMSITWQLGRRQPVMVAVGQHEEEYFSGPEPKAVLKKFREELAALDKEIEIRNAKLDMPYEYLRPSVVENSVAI
UniProt P18054: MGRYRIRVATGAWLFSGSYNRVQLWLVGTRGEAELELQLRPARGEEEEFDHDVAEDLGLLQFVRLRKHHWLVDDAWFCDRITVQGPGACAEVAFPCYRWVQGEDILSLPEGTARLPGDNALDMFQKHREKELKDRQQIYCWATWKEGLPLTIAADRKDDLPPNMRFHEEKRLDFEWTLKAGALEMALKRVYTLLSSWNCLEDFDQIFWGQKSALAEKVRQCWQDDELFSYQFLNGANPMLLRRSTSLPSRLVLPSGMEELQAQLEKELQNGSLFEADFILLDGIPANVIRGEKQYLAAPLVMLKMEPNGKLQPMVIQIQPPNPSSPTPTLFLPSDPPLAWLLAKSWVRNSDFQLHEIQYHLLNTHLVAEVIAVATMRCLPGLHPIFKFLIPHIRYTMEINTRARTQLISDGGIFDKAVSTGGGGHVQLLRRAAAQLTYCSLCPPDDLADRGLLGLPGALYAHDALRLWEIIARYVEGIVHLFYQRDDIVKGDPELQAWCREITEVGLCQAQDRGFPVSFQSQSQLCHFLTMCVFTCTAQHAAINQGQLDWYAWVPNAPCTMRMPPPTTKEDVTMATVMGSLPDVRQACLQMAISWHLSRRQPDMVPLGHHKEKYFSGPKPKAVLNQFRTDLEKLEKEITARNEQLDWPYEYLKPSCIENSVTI

Columns and labels:
[1] = biological target: human reticulocyte 15-lipoxygenase-1 (15-LOX-1) (Homo sapiens (Human), UniProt P16050); assay: Lipoxygenase UV-Vis assay (15-LOX-1); format: biochemical
12-LOX [2] = biological target: T1, 12-LOX (Homo sapiens (Human), UniProt P18054); assay: biochemical
12-LOX [3] = biological target: T1, 12-LOX; details: 0.01% Triton X-100
In Vivo PK (Mouse) = details: male, CD1, mouse, po, 30 mg/kg

- inhibition of 15-LOX-1 (in words) ([1]; single concentration (25 μM)): almost complete inhibition of 15-LOX-1
SMILES: COc1ccc2nc(NS(=O)(=O)c3ccc(NCc4cccc(OC)c4O)cc3)sc2c1 [Compound 62, 4-((2-hydroxy-3-methoxybenzyl)amino)-N-(6-methoxybenzo[d]thiazol-2-yl)benzenesulfonamide]

SMILES: COc1cccc(CNc2ccc(S(=O)(=O)Nc3nc4ccccc4o3)cc2)c1O [Compound 36, N-(benzo[d]oxazol-2-yl)-4-((2-hydroxy-3-methoxybenzyl)amino)benzenesulfonamide]
- Ki (12-LOX [2]): 630 nM
- Ki (12-LOX [3]; from 1/Vmax replot): 620 ± 100 nM
- Ki (12-LOX [3]; from Km/Vmax replot): 530 ± 200 nM

SMILES: COc1cccc(CNc2ccc(S(=O)(=O)Nc3nc4ccccc4s3)cc2)c1O [Compound 35, N-(benzo[d]thiazol-2-yl)-4-((2-hydroxy-3-methoxybenzyl)amino)benzenesulfonamide]
- Tmax (In Vivo PK (Mouse)): 15 min
- IC50 ([1]; Table 4, read-out: 15-LOX-1 IC50): 9700 nM

SMILES: COc1cccc(CNc2ccc(S(=O)(=O)Nc3nc4ccccc4[nH]3)cc2)c1O [Compound 37, N-(1H-benzo[d]imidazol-2-yl)-4-((2-hydroxy-3-methoxybenzyl)amino)benzenesulfonamide]
- IC50 [1]: > 70000 nM
- IC50 ([1]; 15-LOX-1 IC50, Table 4): > 100000 nM

SMILES: COc1cccc(CNc2ccc(S(=O)(=O)Nc3cccc(C(C)C)c3)cc2)c1O [Compound 67, 4-((2-hydroxy-3-methoxybenzyl)amino)-N-(3-isopropylphenyl)benzenesulfonamide]
- IC50 [1]: > 100000 nM
